Reference: PMC4157643 (Journal of pharmaceutical sciences, 2012)
Like-named read-outs stand apart in the source and are kept apart here.

Conditions: vitreous humor, two-compartment model, n=4

glucosyl hesperidin [hesperidin G]
V2 (intravitreal dose 1.5 µg): 1.00 ± 0.07 mL | V2 (intravitreal dose 4.5 µg): 0.81 ± 0.05 mL | V2 (intravitreal dose 15 µg): 0.78 ± 0.16 mL
